{"source": "patent US8075900B2", "about": "“Melanoma associated peptide analogues and vaccines against melanoma” (The United States of America, as represented by the …, priority 1996, dated 2011)", "tested_on": "T2 target cells, Melan-A/MART-1 27-35-reactive TIL 1235 lymphocytes", "test": "Chromium-release assay, target cell sensitization for lysis by TIL 1235", "type": "cell-based, human", "settings": "E:T 20:1, T2 target cells preincubated 90 min with 1 μM peptide, 5 hours", "protocol": "Chromium release assays were performed as described previously (Bakker et al., 1994, J. Exp. Med. 179:1005). Briefly, 10^6 target cells were incubated with 100 mCi Na2^51CrO4 (Amersham, Bucks, UK) for 1 hour. Various amounts of effector cells were then added to the target cells in triplicate wells of U bottomed microliter plates (Costar, Badhoevedorp, The Netherlands) in a final volume of 150 ml. In peptide recognition assays, target cells were pre-incubated with various concentrations of peptide for 30 or 60 min at 37° C. in a volume of 100 ml prior to the addition of effector cells. After 5 h of incubation, part of the supernatant was harvested and its radioactive content was measured. The mean percentage specific lysis of triplicate wells was calculated using the formula: % specific lysis=((experimental release−spontaneous release)÷(maximal release−spontaneous release))×100."}
{"sequence": "AAGIGILTV [reference compound]", "values": [{"measurement": "target cell lysis by TIL 1235 (% specific lysis)", "value": 40, "unit": "%"}]}
